The values that follow come from ChEMBL document CHEMBL1138063, “Imidazole-dioxolane compounds as isozyme-selective heme oxygenase inhibitors” (J Med Chem, 2006).

For the assay, the species on record is Rattus norvegicus. Kind of assay: Selectivity index, rat HO2/HO1.

For `Clc1ccc(CCC2(Cn3ccnc3)OCCO2)cc1`, the Selectivity index was above 25.
